Experimental findings from patent US6780994B2, “Phthalimido arylpiperazines useful in the treatment of benign prostatic hyperplasia” (Ortho-McNeil Pharmaceutical, Inc., priority 1998, dated 2004) are described below.

By UniProt entry, the sequences of proteins in these tests, tags left out.
UniProt P35348, whole entry: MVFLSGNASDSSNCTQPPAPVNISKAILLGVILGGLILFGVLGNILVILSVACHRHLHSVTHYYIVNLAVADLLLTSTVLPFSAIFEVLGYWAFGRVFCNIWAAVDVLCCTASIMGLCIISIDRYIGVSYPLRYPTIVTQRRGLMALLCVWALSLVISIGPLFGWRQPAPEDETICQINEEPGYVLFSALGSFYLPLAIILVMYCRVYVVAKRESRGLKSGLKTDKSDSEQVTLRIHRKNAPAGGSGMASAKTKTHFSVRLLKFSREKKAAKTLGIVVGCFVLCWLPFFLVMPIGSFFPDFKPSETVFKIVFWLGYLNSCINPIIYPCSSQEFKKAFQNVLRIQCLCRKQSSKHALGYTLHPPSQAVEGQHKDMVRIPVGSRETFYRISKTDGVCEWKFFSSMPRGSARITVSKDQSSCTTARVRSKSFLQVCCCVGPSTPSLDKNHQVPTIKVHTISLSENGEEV
UniProt P25100, whole entry: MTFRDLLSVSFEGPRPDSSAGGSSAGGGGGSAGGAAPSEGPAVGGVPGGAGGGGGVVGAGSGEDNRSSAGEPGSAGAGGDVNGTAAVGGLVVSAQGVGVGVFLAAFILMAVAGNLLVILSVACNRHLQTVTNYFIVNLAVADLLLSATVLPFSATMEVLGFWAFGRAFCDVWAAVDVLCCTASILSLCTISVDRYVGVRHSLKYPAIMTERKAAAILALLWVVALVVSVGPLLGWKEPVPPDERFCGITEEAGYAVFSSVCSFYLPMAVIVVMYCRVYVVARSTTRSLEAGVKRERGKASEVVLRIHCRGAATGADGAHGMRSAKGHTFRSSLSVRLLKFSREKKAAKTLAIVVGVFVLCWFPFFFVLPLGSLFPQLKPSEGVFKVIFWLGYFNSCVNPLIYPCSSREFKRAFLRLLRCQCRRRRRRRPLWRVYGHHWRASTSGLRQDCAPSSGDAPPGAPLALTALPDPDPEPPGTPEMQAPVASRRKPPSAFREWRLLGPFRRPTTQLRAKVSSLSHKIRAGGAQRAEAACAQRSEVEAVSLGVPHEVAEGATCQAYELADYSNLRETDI
UniProt P35368, whole entry: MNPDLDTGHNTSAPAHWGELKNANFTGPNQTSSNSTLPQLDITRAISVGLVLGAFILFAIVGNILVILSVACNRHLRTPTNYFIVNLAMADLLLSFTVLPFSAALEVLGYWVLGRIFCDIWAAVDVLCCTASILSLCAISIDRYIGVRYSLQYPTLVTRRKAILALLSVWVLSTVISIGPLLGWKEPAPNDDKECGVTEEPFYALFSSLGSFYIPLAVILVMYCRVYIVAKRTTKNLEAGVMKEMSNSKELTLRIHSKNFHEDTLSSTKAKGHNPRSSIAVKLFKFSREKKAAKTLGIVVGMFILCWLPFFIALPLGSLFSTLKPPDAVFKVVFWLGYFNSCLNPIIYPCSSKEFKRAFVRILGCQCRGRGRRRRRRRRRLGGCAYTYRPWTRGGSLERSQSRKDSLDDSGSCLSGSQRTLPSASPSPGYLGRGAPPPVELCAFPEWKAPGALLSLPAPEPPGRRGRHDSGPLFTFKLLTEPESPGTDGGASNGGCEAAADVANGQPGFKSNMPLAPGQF

Bounds are passed on as bounds.

The target of test [1] is α1a-AR (Homo sapiens, UniProt P35348). The experiment in a line: radioligand ([125I]-HEAT) receptor binding assay, COS cell membranes expressing cloned receptor. Conditions: read-out: α1a IC50, [125I]-HEAT 50 pM, 1 hour room temperature.
In test [2] the target is α1d-AR (Homo sapiens, UniProt P25100). The description is as above. Conditions: read-out: α1d IC50, [125I]-HEAT 50 pM, 1 hour room temperature.
The target in test [3] is α1b-AR (Homo sapiens, UniProt P35368). Described as above. Particulars: read-out: α1b IC50, [125I]-HEAT 50 pM, 1 hour room temperature.
Test [4] relates to rat aorta tissues. The experiment in a line: norepinephrine-induced contractile response of rat aortic rings. It counts as cell-based. Conditions: read-out: IC50 of inhibition of contractile response in aortic tissue; norepinephrine-induced contraction, Long Evans rat aortic rings, 2 grams tension, 37° C. The source says:
(§1) The contractile responses of rat prostatic tissue and rat aorta tissues were examined in the presence and absence of antagonist compounds. As an indication of the selectivity of antagonism, test compound effects on vascular smooth muscle contractility (α1b-AR and α1d-AR) were compared to the effects on prostatic smooth muscle (α1a-AR). Strips of prostatic tissue and aortic rings were obtained from Long Evans derived male rats weighing 275 grams and sacrificed by cervical dislocation. The prostate tissue was placed under 1 gram tension in a 10 ml bath containing phosphate buffered saline pH 7.4 at 32° C. and isometric tension was measured with force transducers. The aortic tissue was placed under 2 grams tension in a 10 ml bath containing phosphate buffered saline pH 7.4 at 37° C.

In test [5] the test system is rat prostatic tissue. Kind of test: norepinephrine-induced contractile response of rat prostatic tissue strips. It counts as cell-based. Conditions: read-out: IC50 of inhibition of contractile response in prostate tissue; norepinephrine-induced contraction, Long Evans rat prostatic strips, 1 gram tension, 32° C.
Description: as §1

By IC50 is commonly meant the concentration at which inhibition is half-maximal. Turning to `Cc1ccc(N2C(=O)c3ccc(C(=O)NC[C@H](O)CN4CCN(c5ccccc5OC(C)C)CC4)cc3C2=O)cc1C`, the IC50 in test [1] is 260 pM; in test [2], 121000 pM; in test [3], above 2e+06 pM.
As for `COc1cc(N2C(=O)c3ccc(C(=O)NC[C@H](O)CN4CCN(c5ccccc5OC(C)C)CC4)cc3C2=O)cc(OC)c1OC`, the IC50 was 620 pM in test [1], 51000 pM in test [2] and above 2e+06 pM in test [3].
Regarding `Cc1ccc(N2C(=O)c3ccc(C(=O)NC[C@H](O)CN4CCN(c5ccccc5OC(C)C)CC4)cc3C2=O)cc1`, the IC50 in test [4] is 42500 nM; in test [5], 750 nM; in test [1], 160 pM; in test [2] it was 37000 pM; in test [3] it was 1.65e+06 pM.
`COc1ccc(N2C(=O)c3ccc(C(=O)NC[C@H](O)CN4CCN(c5ccccc5OC(C)C)CC4)cc3C2=O)cc1`: the IC50 in test [3] was found to be 1.75e+06 pM.
With `COc1ccc(N2C(=O)c3ccc(C(=O)NC[C@H](O)CN4CCN(c5ccccc5OC(C)C)CC4)cc3C2=O)c(OC)c1`, the IC50 in test [1] was 590 pM; in test [2], 56000 pM; in test [3], above 2e+06 pM.
